Test [1] deals with Homeodomain-interacting protein kinase 3 (Homo sapiens) (UniProt Q9H422). The test is described as follows: Inhibition of HIPK3 assessed as residual activity at 10 uM relative to control.
Test [2] has as its target Insulin receptor (Homo sapiens) (UniProt P06213). In words: Inhibition of IR assessed as residual activity at 1 uM relative to control.

Amino acid sequences for entries named in this document (tags omitted). A change or cut given only in a name is not applied to a line headed by its entry.
UniProt Q9H422: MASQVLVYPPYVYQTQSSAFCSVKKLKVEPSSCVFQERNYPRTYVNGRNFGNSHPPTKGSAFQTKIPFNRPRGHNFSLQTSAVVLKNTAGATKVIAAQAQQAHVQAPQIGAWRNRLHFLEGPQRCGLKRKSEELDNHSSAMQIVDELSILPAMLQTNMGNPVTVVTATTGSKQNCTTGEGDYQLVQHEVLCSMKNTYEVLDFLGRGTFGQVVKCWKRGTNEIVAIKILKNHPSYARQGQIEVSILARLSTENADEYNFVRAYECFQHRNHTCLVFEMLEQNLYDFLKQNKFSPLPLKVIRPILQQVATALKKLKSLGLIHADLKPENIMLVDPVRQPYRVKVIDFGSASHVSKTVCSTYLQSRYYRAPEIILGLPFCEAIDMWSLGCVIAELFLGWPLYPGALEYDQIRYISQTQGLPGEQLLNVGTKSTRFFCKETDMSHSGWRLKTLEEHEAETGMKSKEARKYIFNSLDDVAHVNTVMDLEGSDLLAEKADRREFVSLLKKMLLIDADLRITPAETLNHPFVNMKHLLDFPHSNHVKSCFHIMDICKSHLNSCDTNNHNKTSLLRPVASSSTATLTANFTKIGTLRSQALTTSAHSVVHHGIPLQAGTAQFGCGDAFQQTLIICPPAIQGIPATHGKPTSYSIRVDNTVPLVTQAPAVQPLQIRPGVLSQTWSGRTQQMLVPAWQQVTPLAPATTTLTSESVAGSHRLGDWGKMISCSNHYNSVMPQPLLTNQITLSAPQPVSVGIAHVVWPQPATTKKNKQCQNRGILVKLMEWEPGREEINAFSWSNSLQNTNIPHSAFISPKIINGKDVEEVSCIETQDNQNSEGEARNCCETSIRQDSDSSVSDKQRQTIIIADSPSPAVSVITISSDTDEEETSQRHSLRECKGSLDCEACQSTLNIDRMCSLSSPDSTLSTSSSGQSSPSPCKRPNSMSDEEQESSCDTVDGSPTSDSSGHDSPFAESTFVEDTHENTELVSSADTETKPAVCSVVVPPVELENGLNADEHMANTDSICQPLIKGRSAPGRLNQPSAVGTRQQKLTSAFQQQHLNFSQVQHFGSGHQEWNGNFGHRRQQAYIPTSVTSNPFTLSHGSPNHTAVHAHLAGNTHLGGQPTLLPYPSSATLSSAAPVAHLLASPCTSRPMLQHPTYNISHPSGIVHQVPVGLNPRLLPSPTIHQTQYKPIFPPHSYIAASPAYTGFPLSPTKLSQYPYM
UniProt P06213, whole entry: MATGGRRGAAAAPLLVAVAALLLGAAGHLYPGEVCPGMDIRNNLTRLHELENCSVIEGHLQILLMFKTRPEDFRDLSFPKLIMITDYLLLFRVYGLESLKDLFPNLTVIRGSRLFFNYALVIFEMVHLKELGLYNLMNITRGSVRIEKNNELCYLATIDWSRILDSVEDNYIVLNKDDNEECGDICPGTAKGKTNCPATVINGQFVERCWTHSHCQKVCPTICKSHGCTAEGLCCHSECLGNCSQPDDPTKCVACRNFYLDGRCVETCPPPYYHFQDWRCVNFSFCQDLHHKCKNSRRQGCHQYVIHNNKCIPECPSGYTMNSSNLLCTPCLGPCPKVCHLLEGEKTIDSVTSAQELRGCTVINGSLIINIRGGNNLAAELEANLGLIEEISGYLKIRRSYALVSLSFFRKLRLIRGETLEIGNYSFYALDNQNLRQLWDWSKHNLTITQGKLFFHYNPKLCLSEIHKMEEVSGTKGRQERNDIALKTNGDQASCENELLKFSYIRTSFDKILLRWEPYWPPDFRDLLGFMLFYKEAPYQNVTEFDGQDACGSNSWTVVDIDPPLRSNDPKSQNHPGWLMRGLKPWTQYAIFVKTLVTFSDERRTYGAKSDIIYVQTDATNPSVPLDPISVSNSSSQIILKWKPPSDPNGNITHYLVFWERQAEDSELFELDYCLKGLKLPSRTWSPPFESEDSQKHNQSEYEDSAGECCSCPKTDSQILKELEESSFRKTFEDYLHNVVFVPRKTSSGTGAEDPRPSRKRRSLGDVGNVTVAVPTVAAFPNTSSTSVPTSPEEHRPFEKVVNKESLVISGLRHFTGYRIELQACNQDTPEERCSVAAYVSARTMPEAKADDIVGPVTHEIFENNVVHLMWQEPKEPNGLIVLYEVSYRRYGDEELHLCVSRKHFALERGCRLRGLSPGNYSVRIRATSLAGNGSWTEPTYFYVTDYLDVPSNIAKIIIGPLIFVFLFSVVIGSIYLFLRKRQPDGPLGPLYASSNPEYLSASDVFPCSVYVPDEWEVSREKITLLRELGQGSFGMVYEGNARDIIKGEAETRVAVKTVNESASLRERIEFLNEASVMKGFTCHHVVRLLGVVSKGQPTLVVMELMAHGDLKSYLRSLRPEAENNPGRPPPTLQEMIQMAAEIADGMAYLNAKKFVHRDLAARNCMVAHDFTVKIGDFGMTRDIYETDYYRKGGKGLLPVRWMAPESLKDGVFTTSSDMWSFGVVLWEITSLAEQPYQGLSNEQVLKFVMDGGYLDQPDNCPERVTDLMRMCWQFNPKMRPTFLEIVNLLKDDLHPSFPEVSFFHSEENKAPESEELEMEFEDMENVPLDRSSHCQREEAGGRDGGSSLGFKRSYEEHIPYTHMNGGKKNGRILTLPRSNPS

`COc1cc(N2CCC(N3CCN(C)CC3)CC2)ccc1Nc1ncc(Cl)c(Nc2ccccc2S(=O)(=O)C(C)C)n1` [TAE-684]: the figures for the Activity in test [1] and in test [2] were 83% and 17%, respectively.

Values taken from ChEMBL document CHEMBL2010643 (Bioorg Med Chem Lett, 2012).
